Laboratory results reported in publication PMC6597546, “Identification of a potent benzoxaborole drug candidate for treating cryptosporidiosis” (Nature Communications, 2019).

Experiments:
[1] = system: C. parvum (Bunch Grass Farms Iowa isolate); test: Time-kill curve assay in HCT-8 cells; type: cell-based, Cryptosporidium parvum
Protocol: The invasion assay, DNA replication assay, asexual to sexual stage conversion, and time-kill curve assays were performed using fluorescence microscopy to enumerate parasites and host cell nuclei. Staining protocols are individually described for each assay. Unless noted otherwise, the details of image acquisition were as follows. An inverted Nikon Eclipse Ti2000 microscope with an automated stage and Perfect Focus was used with NIS-Elements Advanced Research software (Nikon, USA, version 4.30.01) to image the wells. The microscope was programmed to focus on the center of each well and then take a 3 × 3 composite image per well using a 20 × (0.45 NA) objective. Images were exported as .tiff files and parasites and host nuclei counted using a custom macro on ImageJ (National Institutes of Health, version 1.52a). Data were analyzed using Microsoft Excel and GraphPad Prism (version 6.01). Time-kill curve assays were used to assess if AN7973 is parasiticidal or parasitistatic for C. parvum. C. parvum Iowa isolate oocysts (Bunch Grass Farms, Deary, ID) were treated to induce excystation and added to >90% confluent HCT-8 cells in 384-well plates. […] The monolayers were then washed, fixed, and stained with Vicia villosa lectin and DAPI at the indicated time points, and imaged as for the C. parvum growth assay. Separate 384-well plates were used for each time point. Parasite numbers were normalized to host cell nucleus numbers and expressed as the percentage of host cells infected. Drug-induced parasite decay was isolated from the reduction in parasites over time that occurs spontaneously in the HCT-8 culture system by expressing the number of parasites as the percentage of the number of parasites present at each time point under control (DMSO-treated) conditions.

[2] = system: C. parvum DMC1 positive parasites; test: Asexual-to-sexual stage conversion assay (DMC1 expression); type: cell-based, Cryptosporidium parvum
Protocol: The invasion assay, DNA replication assay, asexual to sexual stage conversion, and time-kill curve assays were performed using fluorescence microscopy to enumerate parasites and host cell nuclei. Staining protocols are individually described for each assay. Unless noted otherwise, the details of image acquisition were as follows. An inverted Nikon Eclipse Ti2000 microscope with an automated stage and Perfect Focus was used with NIS-Elements Advanced Research software (Nikon, USA, version 4.30.01) to image the wells. The microscope was programmed to focus on the center of each well and then take a 3 × 3 composite image per well using a 20 × (0.45 NA) objective. Images were exported as .tiff files and parasites and host nuclei counted using a custom macro on ImageJ (National Institutes of Health, version 1.52a). Data were analyzed using Microsoft Excel and GraphPad Prism (version 6.01). […] Amphotericin B (Sigma, catalog# A2942) was added to the culture media at 0.1 to 0.5 µg per mL for the DMC1 dose response assays.

THP-1 = test: Cytotoxicity THP-1 (3d); type: cell-based; settings: versus cytotoxicity in three cell lines, in all cases
[3] = Rat toxicokinetics (TK) study; type: in vivo, Sprague-Dawley male rats; settings: Day 1/Day 7

CC1(C)OB(O)c2cc(NC(=O)c3ccc(-n4cccn4)cc3Cl)ccc21 [AN7973]
% C. parvum relative to DMSO control ([1]; 9 x EC90, 0 h exposure): 92.14% and 109.39% and 105.07% and 102.65%
% C. parvum relative to DMSO control ([1]; 9 x EC90, 6 h exposure): 83.7% and 79.89% and 95.49% and 93.58%
% C. parvum relative to DMSO control ([1]; 9 x EC90, 12 h exposure): 41.75% and 66.95% and 75.41% and 60.54%
% C. parvum relative to DMSO control ([1]; 9 x EC90, 24 h exposure): 24.09% and 22.06% and 25.28% and 19.33%
% C. parvum relative to DMSO control ([1]; 9 x EC90, 48 h exposure): 20.46% and 21.37% and 29.19% and 32.15%
% C. parvum relative to DMSO control ([1]; 12 x EC90, 0 h exposure): 92.14% and 109.39% and 105.07% and 102.65%
% C. parvum relative to DMSO control ([1]; 12 x EC90, 6 h exposure): 82.48% and 57.91% and 72.29% and 81.49%
% C. parvum relative to DMSO control ([1]; 12 x EC90, 12 h exposure): 56.04% and 53.36% and 47.41% and 62.87%
% C. parvum relative to DMSO control ([1]; 12 x EC90, 24 h exposure): 20.18% and 31.66% and 25.42% and 16.17%
potency against asexual growth relative to asexual-to-sexual differentiation [2]: four times more potently
selectivity index for inhibition of Cryptosporidium (THP-1): greater than 50
Accumulation index, AUC0-24h ratio [3]: 0.91
Accumulation index, Cmax ratio [3]: 0.87

Where “and” joins values, the source holds several entries; their conditions need not be identical. Equal values may be shown once.
